Consider 2 compounds from ChEMBL document CHEMBL5380874, “Transformation of a Dopamine D2 Receptor Agonist to Partial Agonists as Novel Antipsychotic Agents” (J Med Chem, 2023).

By UniProt entry, the sequences of proteins in these tests, tags left out.
UniProt P21728, whole entry: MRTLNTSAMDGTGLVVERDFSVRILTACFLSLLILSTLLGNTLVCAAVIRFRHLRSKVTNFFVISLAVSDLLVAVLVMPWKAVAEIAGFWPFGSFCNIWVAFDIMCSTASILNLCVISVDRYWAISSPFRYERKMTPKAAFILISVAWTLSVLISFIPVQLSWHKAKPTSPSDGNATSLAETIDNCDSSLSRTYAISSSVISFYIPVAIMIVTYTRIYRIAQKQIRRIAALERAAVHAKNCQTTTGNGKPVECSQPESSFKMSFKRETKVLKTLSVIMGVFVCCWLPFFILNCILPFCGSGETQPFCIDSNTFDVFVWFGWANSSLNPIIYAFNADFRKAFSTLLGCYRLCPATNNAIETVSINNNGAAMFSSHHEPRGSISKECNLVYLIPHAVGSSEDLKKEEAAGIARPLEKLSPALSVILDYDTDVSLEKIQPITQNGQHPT

Assay [1] addresses T1, D(1A) dopamine receptor (Homo sapiens, UniProt P21728). Description: Partial agonist activity at Dopamine D1 receptor (unknown origin) expressed in HEK293T coexpressing beta-arrestin-2 assessed as maximal cAMP accumulation incubated for 5 mins by beta-arrestin recruitment based BRET assay relative to control. In kind it is functional, cell-based. In general terms: cAMP levels reflect the balance of adenylyl cyclase and phosphodiesterase activity.

Assay [2] addresses T1, D(1A) dopamine receptor. Description: Partial agonist activity at Dopamine D1 receptor (unknown origin) expressed in HEK293T co-expressing G-alphaS assessed as maximal cAMP accumulation incubated for 5 mins by BRET assay relative to control. In kind it is functional, cell-based.

Calls of active or inactive are those of the source. No cut-off for these calls is given here.

With `COc1cccc2c3c(oc12)CN(CCCCOc1ccc2c(c1)NC(=O)CC2)CC3`, the Emax result on D(1A) dopamine receptor [1] and on D(1A) dopamine receptor [2] was “inactive” throughout.
Regarding `COc1cccc2c3c(oc12)CN(CCCCOc1ccc2ccc(=O)[nH]c2c1)CC3`, the Emax result on D(1A) dopamine receptor [1] and on D(1A) dopamine receptor [2] was “inactive” in each case.
